The target of the assay is T1, Low Density Lipoprotein Receptor (LDLR), recombinant (UniProt P01130 22-788, limits assumed).
T1 construct: also called Recombinant LDLR
Put plainly: SPR multi-cycle kinetics, immobilized LDLR, high surfactant preparation (HBS-P+), 1:1 model. Here is the method:
The table shown in FIG. 23 illustrates LDLR binding data (SPR), using a high surfactant preparation. Recombinant LDLR was diluted in 10 mM acetate buffer pH 4.5 and amine coupled to a CM5 chip at 1000 RU. Peptides were diluted to 5 μM in running buffer (HBS-P+, 1 mM CaCl2) and serially diluted 1:3 for 5 total concentrations. […] Between cycles, the chip surface was regenerated with 3 injections of 50 mM NaOH/100 mM EDTA. Multi-Cycle Kinetics was performed on a Biacore Insight Evaluation Software and binding kinetics were analyzed with a 1:1 binding model.

By Kd is commonly meant the concentration at which binding is half-saturated.

B1: T-117 (peptide)
peptide: RSGADALESALKELKRFIREWTLGQSTEELRVRLASHLRKLRKRLLRDADDLQKRLAVYQA
Turning to B1, the equilibrium dissociation constant (Kd) is under 10 µM.

B2: T-118 (peptide)
peptide: LVARLLKELTAAMARLGRDAEDIRGNLFQYFDEVWAMLGQSTEELRVRLASHLRKLRKRLLRDADDLQKRLAVYQA
As for B2, the Kd is under 10 µM.

The values are drawn from patent US20260115250A1 (CHARACTER BIOSCIENCES, published 2026).
